{"source": "patent US20100029652A1", "about": "“Combination Therapy For Treating Hepatitis C Infections” (ACHILLION PHARMACEUTICALS, INC., priority 2007, published 2010)", "key": {"[1]": {"test_system": "HCV replicon in Huh-9-13 cells", "test": "Long term combination study: replicon curing assay, colony formation after G418 selection", "type": "cell-based, hepatitis C virus", "settings": "approximately 5×EC50", "protocol": "In other repetitions of this experiment, treatment time varied from 7 to 10 days. Cells were passaged once every 3 days into new plates at the same density (10^5 cells/plate) and with fresh compounds. No G418 was present during the 9 day treatment. On day 10, the cells were passaged again to new plates at a density of 10^5 cells/plate, respectively, and were treated only with G418 for approximately 3 more weeks. […] During the 2˜3 weeks, the old media were replaced with fresh media twice a week. The colonies were fixed with 10% formaldehyde and stained with 2% crystal violet in 20% ethanol.\nIn this assay, the number of the cells in which the replicons still remained after the 9-day treatment was quantified based on the number of the colonies formed after G418 selection."}, "[2]": {"test_system": "HCV replicon (subtype 1b, Con-1) in Huh-luc/neo cells", "test": "Short term combination study: HCV replicon luciferase assay in Huh-luc/neo cells, 3-days treatment", "type": "cell-based, hepatitis C virus"}, "[3]": {"settings": "in combination with ACH-806, 9-day treatment"}, "[4]": {"settings": "combined with ACH-806, molar ratio 1:10, Chou and Talalay"}, "[5]": {"settings": "combined with ACH-806, molar ratio 1:20, Chou and Talalay"}, "[6]": {"settings": "drug combined with ACH-806, Prichard and Shipman model"}}}
{"substance": "IFN: IFN-alpha-2b (INTRON A, Schering), recombinant interferon alfa 2b, purchased", "values": [{"measurement": "log reduction of replicon-containing cells", "setting": "[1]; [3]", "value": 4, "unit": "log"}, {"measurement": "replicon-containing cells cured", "setting": "[1]; [3]", "value": "~99.99", "unit": "%"}, {"measurement": "replicon-containing cells cured", "setting": "[1]; single agent by itself, 9-day treatment", "value": "about 90%"}, {"measurement": "CI (SD) at Replicon inhibition of 50%", "setting": "[2]; [4]", "value": "1.12 (0.08)"}, {"measurement": "CI (SD) at Replicon inhibition of 75%", "setting": "[2]; [4]", "value": "0.93 (0.15)"}, {"measurement": "CI (SD) at Replicon inhibition of 90%", "setting": "[2]; [4]", "value": "0.81 (0.17)"}, {"measurement": "CI (SD) at Replicon inhibition of 50%", "setting": "[2]; [5]", "value": "1.04 (0.05)"}, {"measurement": "CI (SD) at Replicon inhibition of 75%", "setting": "[2]; [5]", "value": "0.85 (0.09)"}, {"measurement": "CI (SD) at Replicon inhibition of 90%", "setting": "[2]; [5]", "value": "0.73 (0.10)"}, {"measurement": "Overall combinatory antiviral activity", "setting": "[2]; drug combined with ACH-806", "value": "Additive"}, {"measurement": "Volume (SD) Antagonism", "setting": "[2]; [6]", "value": "5 (3) μM^2%"}, {"measurement": "Volume (SD) Synergy", "setting": "[2]; [6]", "value": "4 (5) μM^2%"}]}
